Measured values from patent publication US20040197222A1 (priority 2002, published 2004).

Tested on: 10^5 of B. stearothermophilus ATCC # 7953
Experiment: Trailer field fumigation, combined-species spore strips incubated for B. stearothermophilus
Format: cell-based, Bacillus stearothermophilus
Conditions: 303.7 oz/1,000 ft^3, 48 hours

Measured: incubation result 10^5 B. stear.

CBr [methyl bromide]
pass: trailer loc. 1-Floor vent, inside ducting | trailer loc. 2-Under carpet fabric | trailer loc. 4-Wall plug outlet, covered | trailer loc. 5-Wall surface, in closed folder | trailer loc. 20-Recliner chair, under cover fabric
